Sequences of proteins named here, by UniProt entry; tags and fusion partners are left off. A change or cut given only in a name is not applied to a line headed by its entry.
UniProt P41968: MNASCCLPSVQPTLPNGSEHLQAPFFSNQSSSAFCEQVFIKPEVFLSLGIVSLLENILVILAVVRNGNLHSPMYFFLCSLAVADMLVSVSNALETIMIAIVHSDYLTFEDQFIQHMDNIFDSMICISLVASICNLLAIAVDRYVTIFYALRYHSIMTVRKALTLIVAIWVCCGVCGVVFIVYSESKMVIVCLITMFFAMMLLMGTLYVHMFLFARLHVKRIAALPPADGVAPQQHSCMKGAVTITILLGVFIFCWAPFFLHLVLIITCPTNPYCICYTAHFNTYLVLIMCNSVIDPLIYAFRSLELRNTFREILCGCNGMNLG
UniProt Q01726: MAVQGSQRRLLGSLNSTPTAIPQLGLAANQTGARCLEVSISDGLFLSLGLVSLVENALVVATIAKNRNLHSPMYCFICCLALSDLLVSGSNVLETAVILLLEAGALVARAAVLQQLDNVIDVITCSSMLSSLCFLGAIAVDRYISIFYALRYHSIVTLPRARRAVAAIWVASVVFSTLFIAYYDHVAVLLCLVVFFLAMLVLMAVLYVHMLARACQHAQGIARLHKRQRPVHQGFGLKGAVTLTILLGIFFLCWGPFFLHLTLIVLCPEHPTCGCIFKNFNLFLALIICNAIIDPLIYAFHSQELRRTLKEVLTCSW

In ChEMBL document CHEMBL1135618, “Design and pharmacology of N-[(3R)-1,2,3,4-tetrahydroisoquinolinium- 3-ylcarbonyl]-(1R)-1-(4-chlorobenzyl)- 2-[4-cyclohexyl-4-(1H-1,2,4-triazol- 1-ylmethyl)piperidin-1-yl]-2-oxoethylamine (1), a potent, selective, melanocortin subtype-4 receptor agonist” (J Med Chem, 2002):

Legend:
Melanocortin receptor 3 [1] = target: T1, Melanocortin receptor 3 (Homo sapiens, UniProt P41968); assay: Functional activity as concentration at 50% maximum cAMP accumulation in human melanocortin 1 (MC3R) receptor
Melanocortin receptor 3 [2] = target: T1, Melanocortin receptor 3; assay: Evaluated for Functional Activity at MC3R as effective concentration at 50% maximum CMP accumulation
[3] = target: T2, Melanocyte-stimulating hormone receptor (Homo sapiens, UniProt Q01726); assay: Functional activity as concentration at 50% maximum cAMP accumulation in human melanocortin 1 (MC1R) receptor
Melanocortin receptor 3 [4] = target: T1, Melanocortin receptor 3; assay: Evaluated for binding affinity against human Melanocortin-3 receptor (hMC3R) by displacing [125I]NDP-alpha-MSH radioligand expressed in CHO cells; assay type: cell-based
[5] = target: T2, Melanocyte-stimulating hormone receptor; assay: Evaluated for binding affinity against human melanocortin 1 (hMC1R) receptor by displacing [125I]NDP-alpha-MSH radioligand expressed in CHO cells; assay type: functional, cell-based

EC50 (Melanocortin receptor 3 [1]): 2.49 µM
EC50 (Melanocortin receptor 3 [2]): 2.49 µM
EC50 [3]: 2.85 µM
IC50 (Melanocortin receptor 3 [4]): 0.761 µM
IC50 [5]: 2.07 µM
Structure (SMILES): O=C(N[C@H](Cc1ccc(Cl)cc1)C(=O)N1CCC(Cn2cncn2)(C2CCCCC2)CC1)[C@H]1Cc2ccccc2CN1
